# Reference: ChEMBL document CHEMBL6096675 (J Med Chem, 2025)
# Sequences of proteins named here, by UniProt entry; tags and fusion partners are left off.
# UniProt P51531, whole entry, looked up: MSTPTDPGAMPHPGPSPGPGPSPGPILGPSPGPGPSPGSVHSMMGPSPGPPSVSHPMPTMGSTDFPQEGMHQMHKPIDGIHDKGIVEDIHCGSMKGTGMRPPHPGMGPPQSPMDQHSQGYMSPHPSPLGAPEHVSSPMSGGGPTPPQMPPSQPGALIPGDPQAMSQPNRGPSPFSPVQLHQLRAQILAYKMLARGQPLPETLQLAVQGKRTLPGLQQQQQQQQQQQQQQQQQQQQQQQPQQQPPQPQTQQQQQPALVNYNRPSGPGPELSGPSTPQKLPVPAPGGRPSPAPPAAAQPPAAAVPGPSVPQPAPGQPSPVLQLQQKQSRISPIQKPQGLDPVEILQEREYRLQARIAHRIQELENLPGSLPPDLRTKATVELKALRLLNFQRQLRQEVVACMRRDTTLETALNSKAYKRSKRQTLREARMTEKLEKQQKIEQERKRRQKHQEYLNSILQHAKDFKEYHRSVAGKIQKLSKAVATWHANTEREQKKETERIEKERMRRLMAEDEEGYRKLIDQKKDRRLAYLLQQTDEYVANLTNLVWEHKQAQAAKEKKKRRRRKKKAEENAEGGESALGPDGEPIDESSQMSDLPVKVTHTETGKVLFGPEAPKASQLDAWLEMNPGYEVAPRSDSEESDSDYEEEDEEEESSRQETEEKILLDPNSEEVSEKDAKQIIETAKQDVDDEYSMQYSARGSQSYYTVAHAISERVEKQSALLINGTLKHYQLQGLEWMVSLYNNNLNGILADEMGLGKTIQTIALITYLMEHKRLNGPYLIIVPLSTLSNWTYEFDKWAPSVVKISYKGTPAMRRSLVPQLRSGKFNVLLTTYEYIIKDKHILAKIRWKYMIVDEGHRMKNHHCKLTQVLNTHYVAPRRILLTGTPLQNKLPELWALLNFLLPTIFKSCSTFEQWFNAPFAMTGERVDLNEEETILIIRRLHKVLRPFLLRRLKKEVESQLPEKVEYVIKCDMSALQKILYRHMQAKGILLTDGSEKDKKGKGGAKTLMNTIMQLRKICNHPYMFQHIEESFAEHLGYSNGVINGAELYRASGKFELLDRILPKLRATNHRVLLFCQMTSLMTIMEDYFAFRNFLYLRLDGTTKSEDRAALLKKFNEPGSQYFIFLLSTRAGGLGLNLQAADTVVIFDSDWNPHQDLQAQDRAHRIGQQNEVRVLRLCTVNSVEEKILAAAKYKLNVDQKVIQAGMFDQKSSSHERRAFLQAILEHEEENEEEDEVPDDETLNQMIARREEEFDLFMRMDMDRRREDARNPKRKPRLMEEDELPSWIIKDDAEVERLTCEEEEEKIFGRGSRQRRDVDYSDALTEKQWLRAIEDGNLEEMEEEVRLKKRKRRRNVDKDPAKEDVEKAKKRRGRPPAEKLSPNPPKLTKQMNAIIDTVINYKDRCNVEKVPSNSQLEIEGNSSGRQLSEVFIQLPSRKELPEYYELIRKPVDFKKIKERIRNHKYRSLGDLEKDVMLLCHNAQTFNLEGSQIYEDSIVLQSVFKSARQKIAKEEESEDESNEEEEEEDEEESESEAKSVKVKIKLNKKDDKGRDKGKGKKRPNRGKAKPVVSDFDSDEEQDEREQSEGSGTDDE
# UniProt P40337, whole entry, looked up: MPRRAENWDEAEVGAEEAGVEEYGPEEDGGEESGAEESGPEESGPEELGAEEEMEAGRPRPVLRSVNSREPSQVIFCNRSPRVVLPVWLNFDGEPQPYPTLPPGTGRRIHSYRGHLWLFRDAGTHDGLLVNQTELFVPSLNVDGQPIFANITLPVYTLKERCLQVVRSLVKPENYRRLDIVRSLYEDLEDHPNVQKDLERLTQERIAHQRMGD
# Target: von Hippel-Lindau disease tumor suppressor/SWI/SNF-related matrix-associated actin-dependent regulator of chromatin subfamily A member 2 (Homo sapiens, UniProt P51531+P40337)
# Assay: PROTAC activity at SMARCA2/VHL1 in human HeLa cells assessed as protein degradation after 2 hrs by Nano-Glo HiBiT lytic detection assay
# Format: cell-based
structure (smiles),measurement,value
Cc1ncsc1-c1ccc([C@H](CN2CCOCC2)NC(=O)[C@@H]2C[C@H](O)CN2C(=O)[C@@H](n2cc([C@H]3CC[C@H](CN4CCC(c5ccc6c(c5)C5(CCCCC5)c5nc(=O)c7c(Cl)cccc7n5-6)CC4)CC3)nn2)C(C)(C)C)cc1,Activity,inactive

# Calls of active or inactive are those of the source. No cut-off for these calls is given here.
